Article PMC3317874, “Palmitoylation and membrane cholesterol stabilize μ-opioid receptor homodimerization and G protein coupling” (BMC Cell Biology, 2012)

Sequences of proteins named here, by UniProt entry; tags and fusion partners are left off. A change or cut given only in a name is not applied to a line headed by its entry.
UniProt P33535: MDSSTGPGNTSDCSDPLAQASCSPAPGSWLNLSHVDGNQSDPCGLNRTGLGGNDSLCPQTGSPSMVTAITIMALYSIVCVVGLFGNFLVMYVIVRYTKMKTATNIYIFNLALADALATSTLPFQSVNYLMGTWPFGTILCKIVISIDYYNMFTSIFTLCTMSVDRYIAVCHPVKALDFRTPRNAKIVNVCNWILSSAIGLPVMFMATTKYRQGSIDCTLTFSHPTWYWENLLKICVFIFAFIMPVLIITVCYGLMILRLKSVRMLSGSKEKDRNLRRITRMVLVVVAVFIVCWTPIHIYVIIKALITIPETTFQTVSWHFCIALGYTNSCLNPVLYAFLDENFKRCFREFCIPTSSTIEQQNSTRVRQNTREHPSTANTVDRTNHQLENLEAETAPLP

Target: OPRM1 (μ-opioid receptor; HEKOPRM1) (Rattus norvegicus, UniProt P33535)
Assay: saturation binding, isolated cell membranes (Scatchard)
Conditions: labelled compound; only Bmax reported

For [^3H]-diprenorphine, the “saturation binding, isolated cell membranes (Scatchard)” value was “[^3H]-diprenorphine saturation binding assay using isolated cell membranes”.
